Each structure is given as a SMILES string.

The results in this text go back to patent US20230263164A1 (priority 2020, published 2023).

The data set in a line: Kinetics of hydrolysis of dithiophosphates by 31P NMR spectroscopy. The following applies: 85° C., 90% H2O/D2O.

On to `CC(C)OP(=S)([S-])OC(C)C.[K+]`, for which the “t1/2 (days) of first step” value turned out to be 17 days.

Regarding `S=P1([S-])OCCCO1.[K+]`, the “t1/2 (days) of first step” value came to 42 days.
